According to ChEMBL document CHEMBL1129067, “Dioxabicyclooctanyl naphthalenenitriles as nonredox 5-lipoxygenase inhibitors: structure-activity relationship study directed toward the improvement of metabolic stability” (J Med Chem, 1996):
pIC50: −log10 of the molar value.

Molecular target: T1, Polyunsaturated fatty acid 5-lipoxygenase (Homo sapiens, UniProt P09917)
T1 sequence (P09917 whole entry): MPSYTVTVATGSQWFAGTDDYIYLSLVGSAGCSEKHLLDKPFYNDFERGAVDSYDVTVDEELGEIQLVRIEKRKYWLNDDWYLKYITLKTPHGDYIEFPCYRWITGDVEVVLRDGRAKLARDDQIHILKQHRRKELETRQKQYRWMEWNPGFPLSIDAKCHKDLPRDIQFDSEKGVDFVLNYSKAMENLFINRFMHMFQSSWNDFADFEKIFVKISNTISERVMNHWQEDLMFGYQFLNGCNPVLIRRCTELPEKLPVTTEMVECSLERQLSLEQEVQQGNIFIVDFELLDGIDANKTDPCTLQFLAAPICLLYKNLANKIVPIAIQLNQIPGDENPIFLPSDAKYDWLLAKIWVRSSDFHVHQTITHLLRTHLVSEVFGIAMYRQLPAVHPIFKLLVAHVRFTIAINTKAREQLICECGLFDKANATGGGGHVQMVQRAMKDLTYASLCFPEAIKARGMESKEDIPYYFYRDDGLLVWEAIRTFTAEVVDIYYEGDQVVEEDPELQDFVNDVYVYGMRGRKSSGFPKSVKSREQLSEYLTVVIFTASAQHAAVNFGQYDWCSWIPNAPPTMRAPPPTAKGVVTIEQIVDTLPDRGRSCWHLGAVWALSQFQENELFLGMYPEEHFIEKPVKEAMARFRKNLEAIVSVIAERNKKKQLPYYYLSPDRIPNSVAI
Test: Potency to inhibit oxidation of arachidonic acid by recombinant human 5-lipoxygenase

pIC50: 6.94
Structure (SMILES): O=C1OCc2c1cc1cc(OCc3cccc(C4(O)CCOCC4)c3)ccc1c2-c1ccccc1
